Tested on: SK-N-AS cells
Assay: ALAMARBLUE assay of plated cells after freeze-thaw of suspended cells
Assay type: cell-based, Human
Conditions: 2% (v/v) NEAA, 4.5 g/L glucose, 2.5% HSA; FIG. 12
Method: The cells were plated on a 96-well plate in a density of 2.25×10^5 cells/cm^2 and diluted with medium to the final volume of 200 μL inside the well. The cells were then incubated overnight at 37° C. and 5% CO2 so they attached to the wells. Cells were stained with 10 μL ALAMARBLUE® reagent per 100 μL of medium in the well and incubated for 4 h. Same procedure was applied for a blank, where 200 μL of medium was pipetted into the well. After that, 100 μL of solution above the cells was pipetted into a black non-transparent 96-well plate and fluorescence was measured with SPECTRAMAX® plate reader (excitation λ=550 nm, emission λ=590 nm).
Formulations were prepared in 50 mL Falcon tubes and subsequently sterile filtered under the bench with 0.22 μm syringe filter and a syringe. […]
Subsequently, the vials were taken from the −80° C. freezer and rapidly thawed in the water bath at 37° C. Immediately after thawing, 0.1 mL of cell suspension was 2× diluted with medium and counted with NucleoCounter to obtain cell viability [%] and concentration inside the vial. […]
Calculated volume was diluted inside of the well with cell growth medium, so that the final volume was 0.2 mL. […]
ALAMARBLUE® on the other hand, contains a reagent called resazurin. […] The intensity of fluorescence is proportional to the amount of cells that are able to metabolize resazurin and are thus considered viable.

**Q.** How did the “cell survival during freeze-thaw, supplement added to 1M propylene glycol vs 1M propylene glycol” value turn out when “HSA: human serum albumin, cell medium supplement” was run?
**A.** Its value is “no major benefit on cell survival”.

From patent publication US20220338463A1, “METHOD OF PRODUCING LYOPHILIZED CELLS” (LONZA LTD, priority 2019, published 2022)
